The values that follow come from paper PMC8779140 (Pharmaceutics, 2022).

This test addresses SARS-CoV-2 3CL^pro (Severe acute respiratory syndrome coronavirus 2, UniProt P0DTD1). The test is classed as biochemical.

Turning to `CO[C@H]1C[C@@H]2CC[C@@H](C)[C@@](O)(O2)C(=O)C(=O)N2CCCC[C@H]2C(=O)O[C@H]([C@H](C)C[C@@H]2CC[C@@H](O)[C@H](OC)C2)CC(=O)[C@H](C)/C=C(\C)[C@@H](O)[C@@H](OC)C(=O)[C@H](C)C[C@H](C)/C=C/C=C/C=C/1C` [Rapamycin], the “inhibition of 3CL^pro (in words)” value is on record as “did not inhibit”.
